Measurements published in US7678834B2, “Substituted 4-aminocyclohexanol compounds” (dated 2010).

The chains behind the UniProt entries cited, without tags or fusion partners. Where a name states a change or a piece, a line headed by the entry shows the natural chain unless it says otherwise.
UniProt P41146: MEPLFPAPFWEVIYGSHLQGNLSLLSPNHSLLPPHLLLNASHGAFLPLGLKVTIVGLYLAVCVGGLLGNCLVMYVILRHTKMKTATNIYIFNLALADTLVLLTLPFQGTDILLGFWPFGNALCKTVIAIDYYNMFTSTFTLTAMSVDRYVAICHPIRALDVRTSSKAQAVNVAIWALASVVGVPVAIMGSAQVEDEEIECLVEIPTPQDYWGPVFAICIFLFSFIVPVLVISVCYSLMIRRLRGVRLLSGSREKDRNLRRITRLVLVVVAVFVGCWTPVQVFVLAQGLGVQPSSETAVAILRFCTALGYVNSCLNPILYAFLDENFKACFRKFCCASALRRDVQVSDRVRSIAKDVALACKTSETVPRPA

target: ORL1 receptor (Homo sapiens, UniProt P41146); assay: ORL1 receptor binding assay with 3H-nociceptin/orphanin FQ, membranes of recombinant CHO-ORL1 cells; conditions: read-out: Ki value, 3H-nociceptin/orphanin FQ 0.5 nM

First: CN(C)C1(Cc2ccc(F)cc2)CCC(O)(CCc2ccccc2)CC1 (centres unmarked)
Second: CN(C)C1(Cc2ccccc2)CCC(O)(c2cc3ccccc3s2)CC1 (centres unmarked)
The Ki of the first is 4.4-fold higher: 0.2 µM for the first, 0.045 µM for the second.

First: OC1(CCc2ccccc2)CCC(Cc2ccccc2)(N2CCCC2)CC1 (centres unmarked)
Second: 4-(Allylmethylamino)-4-benzyl-1-phenethylcyclohexanol hydrochloride
The Ki of the first is 1.5-fold lower: 0.04 µM for the first, 0.06 µM for the second. The first binds more tightly here.

CN(C)C1(Cc2ccccc2F)CCC(O)(CCc2ccccc2)CC1 (centres unmarked) and CN(C)C1(Cc2ccccc2)CCC(O)(CCc2ccc(F)cc2)CC1 (centres unmarked) are within 1.5-fold of each other in Ki: 0.05 µM for the first, 0.04 µM for the second.

Going from CN(C)C1(Cc2ccccc2)CCC(O)(CCc2ccccc2)CC1 (centres unmarked) to CN(C)C1(Cc2ccccc2)CCC(O)(Cc2cccc(F)c2)CC1 (centres unmarked), the Ki rises from 0.02 µM to 0.9 µM (45-fold).

First: CN(C)C1(Cc2ccccc2)CCC(O)(Cc2ccc(F)cc2)CC1 (centres unmarked)
Second: CN(C)C1(Cc2ccccc2)CCC(O)(CCc2cccc(F)c2)CC1 (centres unmarked)
The Ki of the first is 20-fold higher: 0.4 µM for the first, 0.02 µM for the second.

Compared with CN(C)C1(Cc2cccc(F)c2)CCC(O)(CCc2ccccc2)CC1 (centres unmarked), CN(C)C1(Cc2cccc(F)c2)CCC(O)(Cc2ccccc2)CC1 (centres unmarked) is 30-fold higher in Ki: 0.03 µM for the first, 0.89 µM for the second.

First: CN(C)C1(Cc2ccccc2)CCC(O)(c2csc3ccccc23)CC1 (centres unmarked)
Second: CN(C)C1(Cc2ccccc2)CCC(O)(CCc2ccccc2F)CC1 (centres unmarked)
The Ki of the first is 5-fold higher: 0.15 µM for the first, 0.03 µM for the second. The second binds more tightly here.

CN(C)C1(Cc2ccccc2)CCC(O)(c2cc3ccccc3n2C)CC1 (centres unmarked) and CN(C)C1(Cc2ccccc2)CCC(O)(c2cc3ccccc3o2)CC1 (centres unmarked) are within 1.5-fold of each other in Ki: 0.13 µM for the first, 0.15 µM for the second.

tested on: NMRI mice; assay: Analgesia testing in the tail flick test on the mouse; conditions: dosage 10 mg/kg intravenously

For “4-(Allylmethylamino)-4-benzyl-1-phenethylcyclohexanol hydrochloride”, the “% MPE” value was 97 (10) %.
